Source: PubChem BioAssay (National Center for Advancing Translational Sciences (NCATS))
TDP1 cell noCPT: qHTS for Inhibitors of human tyrosyl-DNA phosphodiesterase 1 (TDP1): qHTS in cells in absence of CPT; DT40 Tdp1-/- hTDP1 cells, no CPT, ATP luminescence, 48 h; Potency, µM (top dose mostly 46.2 µM), for the others: at the highest dose activity change, negative = growth inhibition, hits mostly inhibitors; 420,000 compounds, 15% hits; note: potency is the fitted concentration of half-maximal effect; % is set by controls: 0 for no effect and ±100 for the full control effect; nearly all actives have a fitted effect of over 55% in size
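Camptothecin absent (DMSO only). Human TDP1-complemented DT40 knockout cells, 400 cells/well, 37 °C for minimum 48 hr; ATP measured via CellTiter-Glo, 30 min dark incubation, luminescence.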
uPA generation: blocks generation of uPA at the cell surface. Potency, µM (top dose mostly 38.3 µM), for inactives: at the top dose activity change, negative = inhibition, actives largely listed as inhibitors. 330,000 compounds, 0.31% hits. AID 540303. cell surface uPA generation assay, qHTS; active = well fitted inhibition curve with a large enough effect; inconclusive = small, poorly fitted or top-dose-only effect; inactive = no such curve, though single readings can be large or run the other way; tested in mouse RAW 264.7 cells; note: potency is the fitted concentration of half-maximal effect; % is set by controls: 0 for no effect and ±100 for the full control effect; nearly all actives have a fitted effect of over 55% in size
miR-21 reporter: miR-21 reporter, rising signal; HeLa miR-21 FLuc reporter, luciferase, 48 h; Potency, µM (top dose mostly 38.3 µM), without a hit: at the top dose reporter change, positive = more light; 340,000 tested, under 10 active; active = well fitted rising curve with a large enough effect; inconclusive = small, poorly fitted or top-dose-only effect; inactive = no such curve, though single readings can be large or run the other way;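 note: % of control where 0% means no effect; miR-21 action dims this reporter so a rising signal means less miR-21 action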
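HeLa cells endogenously expressing miR-21, stably carrying CMV-driven firefly luciferase with a downstream miR-21 binding site, 2000 cells/well. Titrations up to approximately 40 uM, 48 hours; luciferase luminescence read.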
DT40 TDP1 CPT: growth inhibition of DT40 Tdp1-/-;hTDP1 cells with camptothecin (screen for TDP1 inhibitors); chicken DT40 Tdp1-/-;hTDP1 cells + 20 nM CPT, ATP luminescence, 48 h; Potency, µM (top dose mostly 46.2 µM), for the others: at the top dose activity change, negative = growth inhibition, actives largely listed as inhibitors; 420,000 compounds, 12% hits; note: potency is the fitted concentration of half-maximal effect; % is set by controls: 0 for no effect and ±100 for the full control effect; nearly all actives have a fitted effect of over 55% in size
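Cell growth measured by CellTiter-Glo luminescence after a minimum 48 h, 37 C compound exposure with 20 nM CPT in Tdp1-knockout DT40 cells stably expressing hTDP1, seeded 400/well; qHTS titration format.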
TDP1 block: TDP1 (human) enzyme inhibition | Q9NUW8 | recombinant TDP1, AlphaScreen DNA substrate cleavage | 350,000 compounds, 0.28% hits | Potency, µM (top dose mostly 130 µM), without a hit: top-dose activity change, negative = inhibition, hits mostly inhibitors; note: potency is the fitted concentration of half-maximal effect; % is set by controls: 0 for no effect and ±100 for the full control effect; nearly all actives have a fitted effect of over 40% in size
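E. coli-derived human Tdp1, 1 nM final. Cpd preinc 15 min RT; substrate 15 nM final, 5 min RT; AS bead mix 10 ug/ml final, 10 min RT. Signal loss = tyrosine-FITC cleavage. No-enzyme wells = max signal.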
Active calls of the source: *; [ ] = remark or other dose. Hits are enriched below; roughly 16% of the tested compounds scored in any of these assays. Unless noted, calls come from the whole dose curve; as a rule, active = well fitted curve in the direction sought with a large enough effect; inconclusive = small, poorly fitted or top-dose-only effect, or another doubt; inactive = no such curve, though single readings can be large; an effect the other way counts as inactive or inconclusive.

Cc1nc2cc(C(F)(F)F)ccc2n1C1CCN(Cc2nnnn2Cc2cccs2)CC1 was read as TDP1 cell noCPT 16µM*, uPA generation 8%, miR-21 reporter -5%, DT40 TDP1 CPT 16µM* and TDP1 block 0%.
`Fc1ccc(Cn2nnnc2CN2CCC(n3nnc4cc(C(F)(F)F)ccc43)CC2)cc1` gave TDP1 cell noCPT inconclusive, uPA generation -2%, miR-21 reporter 0% and DT40 TDP1 CPT 18µM*.
`COc1c(O)ccc(/C=N\NC(=O)c2ccc3c(c2)OCO3)c1[N+](=O)[O-]` gave TDP1 cell noCPT -9%, uPA generation inconclusive, miR-21 reporter -32% and DT40 TDP1 CPT 6%.
Screening O[C@@H]1[C@H](O)[C@H]2[C@@H](O)CCN2C[C@@H]1O returned TDP1 cell noCPT -2%, DT40 TDP1 CPT 11% and TDP1 block -10%[56.1 µM].
CC(Cc1ccccc1)[n+]1cc(/N=C(\[O-])N(C)C)on1 (stereo unspecified) was read as TDP1 cell noCPT 3%, uPA generation -2%, miR-21 reporter -15%, DT40 TDP1 CPT -7% and TDP1 block -3%.
CCOC(=O)c1ccc2c(c1)N(CC)C(=O)c1ccccc1S2 was read as TDP1 cell noCPT inconclusive, uPA generation -3%, miR-21 reporter -6% and DT40 TDP1 CPT inconclusive.
For Cc1ccc(C2=CCNCC2)cc1 the results were TDP1 cell noCPT -16%, uPA generation 3%, miR-21 reporter -2%, DT40 TDP1 CPT -2% and TDP1 block 5%.
Screening CN(C)C(=O)Oc1ccc(Br)cc1C(=O)Nc1ccc(F)c(Cl)c1 returned TDP1 cell noCPT 23µM*, uPA generation 4%, miR-21 reporter 11%, DT40 TDP1 CPT 23µM* and TDP1 block -1%.
CN(C)C(=O)Oc1ccc(Cl)c2ccccc12 was read as TDP1 cell noCPT -6%, uPA generation 2%, miR-21 reporter -8%, DT40 TDP1 CPT -1% and TDP1 block 5%.
For COc1ccc(/C=N\N=C(N)N)cc1 the results were TDP1 cell noCPT 16µM*, uPA generation -10%, miR-21 reporter 20%, DT40 TDP1 CPT inconclusive and TDP1 block 3%.
NC(N)=N/N=C/c1ccc(N(c2ccccc2)c2ccccc2)cc1 was read as TDP1 cell noCPT 18µM*, uPA generation -8%, miR-21 reporter inconclusive and DT40 TDP1 CPT 16µM*.
NC(N)=N/N=C/c1ccc(N2CCOCC2)cc1 was read as TDP1 cell noCPT 4.6µM*, uPA generation 7.9µM*, miR-21 reporter 18%, DT40 TDP1 CPT 4.6µM* and TDP1 block 3%.
Screening O=C1CC2OCC=C3CN4CC[C@]56c7ccccc7N1[C@H]5[C@H]2C3C[C@H]46 (stereo partly specified) returned TDP1 cell noCPT -8% and TDP1 block 4%.
Screening C[C@H](N)Cc1c[nH]c2ccc(O)cc12 returned TDP1 cell noCPT -26%, DT40 TDP1 CPT -7% and TDP1 block 12%[56.1 µM].
CC(C)OP(=O)(OC(C)C)C(NCc1ccccc1)c1ccccc1 (stereo unspecified) was read as TDP1 cell noCPT 23µM*, uPA generation 5%, miR-21 reporter -4%, DT40 TDP1 CPT inconclusive and TDP1 block 3%.
Screening COP(=O)(OC)C(Nc1ccccc1)c1ccccc1 (stereo unspecified) returned TDP1 cell noCPT 3%, uPA generation 1%, miR-21 reporter -3%, DT40 TDP1 CPT -15% and TDP1 block 5%.
C/C(=C\c1csc(C)n1)[C@@H]1C[C@@H]2O[C@]2(C)CCC[C@H](C)[C@H](O)[C@@H](C)C(=O)C(C)(C)[C@@H](O)CC(=O)O1 was read as TDP1 cell noCPT 0.0013µM* and DT40 TDP1 CPT 0.0012µM*.
`CCN(C(=O)CSc1ncccc1C(=O)Oc1cccc([N+](=O)[O-])c1)c1cccc(C)c1` gave TDP1 cell noCPT inconclusive, uPA generation -6%, miR-21 reporter -1%, DT40 TDP1 CPT -10% and TDP1 block 4%.
For CC(C)(CN)CC(=O)O the results were TDP1 cell noCPT -5%, uPA generation 7%, miR-21 reporter -4%, DT40 TDP1 CPT -13% and TDP1 block -3%.
`CCSc1nnc(NC(=O)c2cccn(Cc3ccccc3Cl)c2=O)s1` gave TDP1 cell noCPT 11%, miR-21 reporter -3%, DT40 TDP1 CPT 2% and TDP1 block 1%.
`C[C@@H]1O[C@H](O[C@@H]2C=C3CC[C@H]4[C@@H](CC[C@]5(C)[C@@H](c6ccc(=O)oc6)CC[C@]45O)[C@@]3(C)CC2)[C@@H](O)[C@H](O)[C@@H]1O` gave TDP1 block 12%[21 µM].
`C[C@@H]1O[C@@H](O[C@@H]2C=C3CC[C@@H]4[C@H](CC[C@]5(C)[C@@H](c6ccc(=O)oc6)CC[C@]45O)[C@@]3(C)CC2)[C@H](O)[C@H](O)[C@H]1O` gave TDP1 cell noCPT 0.13µM* and DT40 TDP1 CPT 0.14µM*.
Screening C[C@@H]1O[C@@H](O[C@@H]2C=C3CC[C@@H]4[C@@H](CC[C@]5(C)[C@H](c6ccc(=O)oc6)CC[C@@]45O)[C@@]3(C)CC2)[C@H](O)[C@H](O)[C@H]1O returned TDP1 cell noCPT inconclusive and DT40 TDP1 CPT 0.28µM*.
Screening CCOP(=O)(OCC)c1nc(-c2ccc(Br)cc2)oc1N1CCCCC1 returned TDP1 cell noCPT 8.2µM*, uPA generation -7%, miR-21 reporter 5% and DT40 TDP1 CPT 10µM*.
`CCOP(=O)(c1ccccc1)c1nc(-c2ccc(F)cc2)oc1N1CCCCC1` (stereo unspecified) gave TDP1 cell noCPT 21µM*, uPA generation 3%, miR-21 reporter 6%, DT40 TDP1 CPT 13µM* and TDP1 block 2%.
For CCOP(=O)(OCC)c1nc(-c2cccc3ccccc23)oc1NCCc1ccc(OC)cc1 the results were TDP1 cell noCPT inconclusive, uPA generation 0%, miR-21 reporter -11%, DT40 TDP1 CPT inconclusive and TDP1 block inconclusive.
CCOP(=O)(OCC)c1nc(-c2ccc(F)cc2)oc1NCc1ccccc1 was read as TDP1 cell noCPT -52%, uPA generation inconclusive, miR-21 reporter -4%, DT40 TDP1 CPT inconclusive and TDP1 block 3%.
For CCOP(=O)(OCC)c1nc(-c2cccc3ccccc23)oc1N1CCOCC1 the results were TDP1 cell noCPT 10µM*, uPA generation 5%, miR-21 reporter 13%, DT40 TDP1 CPT inconclusive and TDP1 block 1%.
`C1CC2NCCC3NCCC(N1)N32` (stereo unspecified) gave TDP1 cell noCPT -16%, uPA generation -4%, miR-21 reporter -3%, DT40 TDP1 CPT -13% and TDP1 block 4%.

Random excerpt: 4 entries already listed
Screening C[C@@H]1O[C@@H](O[C@@H]2C=C3CC[C@@H]4[C@@H](CC[C@]5(C)[C@H](c6ccc(=O)oc6)CC[C@@]45O)[C@@]3(C)CC2)[C@H](O)[C@H](O)[C@H]1O returned TDP1 cell noCPT inconclusive and DT40 TDP1 CPT 0.28µM*.
Screening CCOP(=O)(OCC)c1nc(-c2ccc(Br)cc2)oc1N1CCCCC1 returned TDP1 cell noCPT 8.2µM*, uPA generation -7%, miR-21 reporter 5% and DT40 TDP1 CPT 10µM*.
`CCN(C(=O)CSc1ncccc1C(=O)Oc1cccc([N+](=O)[O-])c1)c1cccc(C)c1` gave TDP1 cell noCPT inconclusive, uPA generation -6%, miR-21 reporter -1%, DT40 TDP1 CPT -10% and TDP1 block 4%.
CN(C)C(=O)Oc1ccc(Cl)c2ccccc12 was read as TDP1 cell noCPT -6%, uPA generation 2%, miR-21 reporter -8%, DT40 TDP1 CPT -1% and TDP1 block 5%.
